Earlier results, collected in patent publication US20110097274A1, “Carbon-11 and fluorine-18 labeled radioligands for positron emission tomography (PET) imaging for the brain serotonin transporters” (priority 2002, published 2011).

Sequences of proteins named here, by UniProt entry; tags and fusion partners are left off.
UniProt P31652, whole entry: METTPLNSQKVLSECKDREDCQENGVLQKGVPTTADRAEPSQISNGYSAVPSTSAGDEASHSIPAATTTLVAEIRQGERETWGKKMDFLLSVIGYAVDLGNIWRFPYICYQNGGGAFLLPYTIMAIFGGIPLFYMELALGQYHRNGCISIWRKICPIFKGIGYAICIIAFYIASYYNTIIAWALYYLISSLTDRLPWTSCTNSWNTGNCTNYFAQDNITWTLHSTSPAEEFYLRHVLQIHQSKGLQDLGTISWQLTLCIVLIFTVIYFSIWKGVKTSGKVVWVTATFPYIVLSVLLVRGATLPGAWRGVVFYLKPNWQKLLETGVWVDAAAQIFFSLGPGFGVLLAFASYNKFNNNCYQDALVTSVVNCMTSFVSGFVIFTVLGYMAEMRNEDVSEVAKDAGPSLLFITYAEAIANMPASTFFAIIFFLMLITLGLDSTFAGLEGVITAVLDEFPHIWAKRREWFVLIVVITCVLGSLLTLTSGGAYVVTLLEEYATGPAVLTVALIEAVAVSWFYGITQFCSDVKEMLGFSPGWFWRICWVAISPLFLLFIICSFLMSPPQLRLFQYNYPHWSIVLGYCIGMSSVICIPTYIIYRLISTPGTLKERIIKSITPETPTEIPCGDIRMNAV

Molecular target: 5-HT uptake (Rattus norvegicus, UniProt P31652)
Settings: Shank et al., 1988; read-out: C50 for 5-HT uptake blockade; cited from earlier work

For `CSc1ccc(C2CN3CCCC3c3ccccc32)cc1` (single isomer, unassigned; (+)) [McN 5652, (+)-6β-(4-methylthiophenyl)-1,2,3,5,6α,10β-hexahydropyrrolo[2,1-a]isoquinoline], the IC50 is listed as 0.4 nM.
